# Reference: patent US20150118229A1, “JAK1 SELECTIVE INHIBITOR AND USES THEREOF” (ABBVIE INC., priority 2013, published 2015)
# Legend:
# [1] = 18 mg BID, Day 14, harmonic mean (pseudo % CV)
# Pharmacokinetics in rat = assay type: in vivo; details: oral 10 mg/kg/day, Day 29, mean (SD)
# [2] = Human PK, multiple ascending dose Study M13-845 Substudy 1; assay type: in vivo; details: 12 mg BID, Day 14, harmonic mean (pseudo % CV); Western subjects
compound,measurement,setting,value
"CC[C@@H]1CN(C(=O)NCC(F)(F)F)C[C@@H]1c1cnc2cnc3[nH]ccc3n12 [Compound 1, (3S,4R)-3-ethyl-4-(3H-imidazo[1,2-a]pyrrolo[2,3-e]pyrazin-8-yl)-N-(2,2,2-trifluoroethyl)pyrrolidine-1-carboxamide]",t1/2,[1]; Chinese,6.88 (54) hr
same,t1/2,[1]; Japanese,9.51 (70) hr
same,Cmax,Pharmacokinetics in rat; rat F,0.652 (0.269) μg/mL
same,Cmax,Pharmacokinetics in rat; rat M,0.329 (0.172) μg/mL
same,t1/2,[2],7.6 (63) hr

# Like-named read-outs stand apart in the source and are kept apart here.
